Values of other authors, collected in article PMC3849818 (Journal of medicinal chemistry, 2013).

How the values were obtained:
OX2 = conditions: read-out: IC50 OX2; cited from earlier work
OX1 = conditions: cited from earlier work

COc1ccc(C[C@H]2c3cc(OC)c(OC)cc3CCN2[C@@H](C(=O)NC(C)C)c2ccccc2)cc1OC [ACT-335827, reference compound]
IC50 (OX2): 417 nM

Cc1nc2ccc(NC(=O)Nc3ccnc4cccnc34)cc2o1.Cl [Compound 1]
potency at OX1 (OX1): ~ 40 nM | selectivity for OX1 over OX2 (OX1): at least 50 fold
